{"source": "patent US20110027341A1", "about": "“DEVICE FOR IN SITU PRODUCTION AND TOPICAL ADMINISTRATION OF ALLICIN” (YEDA RESEARCH AND DEVELOPMENT CO., LTD. at the Weizmann …, priority 2008, published 2011)", "test": "Storage stability of dry alliin/alliinase components and filters (potential to produce allicin)", "type": "physicochemical", "details": "dry form at room temperature", "experimental": "In preliminary experiments conducted by the inventors of the present invention, a method for isolation of the natural substrate alliin from garlic cloves has been developed, and the enzyme alliinase has been purified and stabilized in a dry form.\nIn preliminary experiments conducted by the inventors of the present invention, various amounts of alliin (100-200 μl from a solution of 50 mg/ml in water) and alliinase (100-200 μl from a solution of 120 enzyme units/ml in PBS pH 7.2 containing 5% mannitol) were adsorbed on different types of matrices, e.g., glass fiber filters, and upon wetting of the two matrices, when placed one on top of the other, using an aqueous buffered solution, different amounts of allicin were produced. For example, glass fiber filter matrices containing 2.5-10 mg of alliin together with glass fiber filter matrices each containing 14 units of dry alliinase yielded between 0.5-1.0 mg allicin following wetting of the two matrices and incubation at room temperature for 30 minutes.", "data": [{"substance": "alliin", "values": [{"measurement": "preservation of potential for producing allicin", "result": "preserved their potential for producing allicin for several months"}]}]}
